# From ChEMBL document CHEMBL2401730, “The macrocyclic peptide natural product CJ-15,208 is orally active and prevents reinstatement of extinguished cocaine-seeking behavior” (J Nat Prod, 2013)
# System: Mus musculus
# Test: Neurotoxicity in C57BL/6J mouse assessed as sedative effect at 10 mg/kg, ip after 60 mins by rotarod test
# Settings: in vivo, 1 h
smiles,measurement,value
CN(C(=O)Cc1ccc(Cl)c(Cl)c1)C1CCCCC1N1CCCC1 (stereo unspecified),Activity,Toxic
